{"sequences": {"note": "The chains behind the UniProt entries cited, without tags or fusion partners. Where a name states a change or a piece, a line headed by the entry shows the natural chain unless it says otherwise.", "UniProt P23458": "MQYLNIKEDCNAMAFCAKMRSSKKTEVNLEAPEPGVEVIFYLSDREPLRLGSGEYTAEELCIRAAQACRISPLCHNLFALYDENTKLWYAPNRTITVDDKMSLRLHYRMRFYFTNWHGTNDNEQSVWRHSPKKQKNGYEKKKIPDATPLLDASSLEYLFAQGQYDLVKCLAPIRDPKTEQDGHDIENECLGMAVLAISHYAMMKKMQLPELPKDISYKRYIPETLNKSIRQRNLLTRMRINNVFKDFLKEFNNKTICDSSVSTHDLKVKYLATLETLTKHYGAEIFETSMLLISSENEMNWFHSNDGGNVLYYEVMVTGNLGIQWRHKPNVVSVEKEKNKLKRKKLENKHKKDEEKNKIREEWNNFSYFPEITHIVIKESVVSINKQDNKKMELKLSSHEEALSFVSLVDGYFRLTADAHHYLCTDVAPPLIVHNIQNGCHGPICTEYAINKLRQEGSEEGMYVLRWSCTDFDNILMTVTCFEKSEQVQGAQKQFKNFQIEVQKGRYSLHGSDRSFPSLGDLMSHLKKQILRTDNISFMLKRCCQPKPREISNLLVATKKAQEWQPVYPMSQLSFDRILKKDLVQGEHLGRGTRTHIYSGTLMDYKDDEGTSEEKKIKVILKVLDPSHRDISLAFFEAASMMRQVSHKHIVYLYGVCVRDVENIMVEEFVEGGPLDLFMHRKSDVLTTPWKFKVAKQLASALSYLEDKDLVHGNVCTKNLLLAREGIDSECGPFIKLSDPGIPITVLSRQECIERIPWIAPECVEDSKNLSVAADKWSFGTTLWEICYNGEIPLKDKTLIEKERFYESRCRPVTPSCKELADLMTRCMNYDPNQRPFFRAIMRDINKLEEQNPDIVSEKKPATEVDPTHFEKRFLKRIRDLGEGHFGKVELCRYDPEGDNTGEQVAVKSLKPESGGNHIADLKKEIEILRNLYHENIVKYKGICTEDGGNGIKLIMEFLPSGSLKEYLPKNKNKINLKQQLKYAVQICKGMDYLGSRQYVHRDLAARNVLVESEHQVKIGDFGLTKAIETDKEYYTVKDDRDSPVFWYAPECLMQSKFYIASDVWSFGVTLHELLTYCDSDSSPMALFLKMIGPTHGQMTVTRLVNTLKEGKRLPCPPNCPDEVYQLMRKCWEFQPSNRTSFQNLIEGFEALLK"}, "source": "BindingDB's records for patent US9328099", "about": "(Merck Sharp & Dohme, 2016)", "target": "Tyrosine-protein kinase JAK1 (Homo sapiens, UniProt P23458)", "test": "HTRF Biochemical Assay", "settings": "25 °C", "data": [{"compound": "COC1(c2nc3nc(-c4noc(=O)[nH]4)nc(-c4cncc(Cl)c4)c3n2C[C@H]2CC[C@H](C)CC2)CCCCC1", "note": "[US9328099, 48-2]", "values": [{"measurement": "IC50", "value": 113, "unit": "nM"}]}]}
